# Measurements reported in patent publication US6441021B1, “Sulfonated amino acid derivatives and metalloproteinase inhibitors containing the same” (Shionogi & Co., Ltd., priority 1996, dated 2002).
# Sequences of proteins named here, by UniProt entry; tags and fusion partners are left off. Residues count along the entry.
# UniProt P14780, 107-707 limits assumed: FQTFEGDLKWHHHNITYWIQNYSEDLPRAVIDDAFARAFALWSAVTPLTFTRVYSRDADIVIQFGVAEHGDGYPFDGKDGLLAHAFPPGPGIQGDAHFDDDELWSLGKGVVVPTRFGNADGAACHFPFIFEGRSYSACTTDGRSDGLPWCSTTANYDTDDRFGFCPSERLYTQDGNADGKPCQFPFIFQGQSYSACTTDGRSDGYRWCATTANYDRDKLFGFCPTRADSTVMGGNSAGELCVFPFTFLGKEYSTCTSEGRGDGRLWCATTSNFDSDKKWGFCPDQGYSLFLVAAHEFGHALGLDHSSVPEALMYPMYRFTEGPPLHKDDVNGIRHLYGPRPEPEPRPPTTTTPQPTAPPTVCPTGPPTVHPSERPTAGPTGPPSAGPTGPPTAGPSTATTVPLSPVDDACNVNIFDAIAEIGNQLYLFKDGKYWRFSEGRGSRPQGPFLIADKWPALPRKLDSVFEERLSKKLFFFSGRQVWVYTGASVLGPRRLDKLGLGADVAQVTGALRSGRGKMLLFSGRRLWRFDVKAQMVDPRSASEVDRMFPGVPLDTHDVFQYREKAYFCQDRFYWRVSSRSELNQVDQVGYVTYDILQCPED
# Molecular target: MMP-9 (92 kDa, gelatinase B; type IV collagenase) (Homo sapiens, UniProt P14780)
# Assay: Assay of type IV collagenase inhibitors: activated MMP-9 with type IV collagenase activity kit substrate, fluorescent intensity
# Assay type: biochemical
# Settings: activated MMP-9, type IV collagenase activity kit substrate, fluorescent intensity; concentration at which percent inhibition reaches 50%
row,SMILES,IC50 [nM]
1,COc1ccc2[nH]cc(CC(NS(=O)(=O)c3ccc(-c4ccccc4)cc3)C(=O)O)c2c1 (racemic),2250
2,O=C(O)C(Cc1nc2ccccc2s1)NS(=O)(=O)c1ccc(-c2ccccc2)cc1 (racemic),4650
3,Cc1ccc(-c2ccc(S(=O)(=O)N[C@H](Cc3ccccc3)C(=O)O)cc2)cc1,329
4,Cc1ccc2[nH]cc(CC(NS(=O)(=O)c3ccc(Oc4ccccc4)cc3)C(=O)NO)c2c1 (racemic),3.5
5,O=C(NO)[C@@H](Cc1ccccc1)NS(=O)(=O)c1ccc(Br)cc1,410
6,O=C(O)[C@@H](CO)NS(=O)(=O)c1ccc(-c2ccccc2)cc1,1160
7,O=C(NO)C(Cc1ccc([N+](=O)[O-])cc1)NS(=O)(=O)c1ccc(-c2ccccc2)cc1 (racemic),380
8,O=C(O)[C@@H](Cc1ccc(-c2ccccc2)cc1)NS(=O)(=O)c1ccc(-c2ccccc2)cc1,680
9,O=C(O)C(Cc1nc2ccccc2[nH]1)NS(=O)(=O)c1ccc(-c2ccccc2)cc1 (racemic),2600
10,CC(C)[C@@H](NS(=O)(=O)c1ccc(Oc2ccccc2)cc1)C(=O)O,1050
11,Cc1ccc2[nH]cc(CC(NS(=O)(=O)c3ccc(-c4ccccc4)cc3)C(=O)O)c2c1 (racemic),205
12,O=C(O)C(Cc1cccc2ccccc12)NS(=O)(=O)c1ccc(-c2ccccc2)cc1 (racemic),810
13,O=C(NO)[C@@H](Cc1ccc(-c2ccccc2)cc1)NS(=O)(=O)c1ccc(-c2ccccc2)cc1,34
14,O=C(NO)C(CCc1ccccc1)NS(=O)(=O)c1ccc(-c2ccccc2)cc1 (racemic),2000
15,O=C(NO)[C@@H](COCc1ccccc1)NS(=O)(=O)c1ccc(-c2ccccc2)cc1,12.9
16,Cc1ccc(-c2ccc(S(=O)(=O)N[C@H](Cc3c[nH]c4ccccc34)C(=O)O)cc2)cc1,76
17,O=C(NO)[C@@H](Cc1c[nH]c2ccccc12)NS(=O)(=O)c1ccc(Oc2ccccc2)cc1,247
18,Cn1cc(CC(NS(=O)(=O)c2ccc(-c3ccccc3)cc2)C(=O)O)c2ccccc21 (racemic),520
19,O=C(NO)C(Cc1c[nH]c2ccc(F)cc12)NS(=O)(=O)c1ccc(-c2ccccc2)cc1 (racemic),28.2
20,O=C(NO)C(Cc1ccc(F)cc1)NS(=O)(=O)c1ccc(-c2ccccc2)cc1 (racemic),110
21,O=C(O)C(Cc1ccc(F)cc1)NS(=O)(=O)c1ccc(-c2ccccc2)cc1 (racemic),3700
22,CSc1ccc(-c2ccc(S(=O)(=O)N[C@H](Cc3c[nH]c4ccccc34)C(=O)O)cc2)cc1,12.3
23,O=C(NO)[C@H](NS(=O)(=O)c1ccc(-c2ccccc2)cc1)c1ccccc1,73

# Second part, the compound after the results:
row,IC50 [nM],SMILES
1,213,O=C(NO)[C@@H](CO)NS(=O)(=O)c1ccc(-c2ccccc2)cc1
2,2600,O=C(O)C(Cc1cscn1)NS(=O)(=O)c1ccc(-c2ccccc2)cc1 (racemic)
3,27,O=C(NO)[C@@H](CC1CCCCC1)NS(=O)(=O)c1ccc(-c2ccccc2)cc1
4,1800,O=C(O)[C@@H](Cc1ccccc1)NS(=O)(=O)c1ccc(-c2ccc(F)cc2)cc1
5,3.7,Cn1cc(CC(NS(=O)(=O)c2ccc(Oc3ccccc3)cc2)C(=O)NO)c2ccccc21 (racemic)
6,41,O=C(NO)C(Cc1cccc2ccccc12)NS(=O)(=O)c1ccc(-c2ccccc2)cc1 (racemic)
7,134,O=C(NO)C(Cc1ccncc1)NS(=O)(=O)c1ccc(-c2ccccc2)cc1 (racemic)
8,28,O=C(NO)[C@@H](CC(F)(F)F)NS(=O)(=O)c1ccc(-c2ccccc2)cc1
9,1300,O=C(NO)[C@@H](Cc1ccccc1)NS(=O)(=O)c1ccc(F)cc1
10,1900,Cn1cc(CC(NS(=O)(=O)c2ccc(Oc3ccccc3)cc2)C(=O)O)c2ccccc21 (racemic)
11,2000,O=C(O)C(CCc1ccccc1)NS(=O)(=O)c1ccc(-c2ccccc2)cc1 (racemic)
12,10.8,Cn1cc(CC(NS(=O)(=O)c2ccc(-c3ccccc3)cc2)C(=O)NO)c2ccccc21 (racemic)
13,249,Cc1ccc(-c2ccc(S(=O)(=O)N[C@@H](C(=O)O)C(C)C)cc2)cc1
14,4.1,O=C(NO)C(Cc1nc2ccccc2s1)NS(=O)(=O)c1ccc(-c2ccccc2)cc1 (racemic)

# Same assay, conditions: activated MMP-9, type IV collagenase activity kit substrate, fluorescent intensity; concentration at which percent inhibition reaches 50%; tested form: hydrate
row,IC50 [nM],SMILES
1,110,O=C(O)[C@@H](Cc1ccccc1)NS(=O)(=O)c1ccc(-c2ccc(-c3ccccc3)cc2)cc1
2,18,COc1ccc(-c2ccc(S(=O)(=O)N[C@H](Cc3c[nH]c4ccccc34)C(=O)O)cc2)cc1

# Same assay, conditions: inhibition of type IV collagenase (MMP-9), concentration at which percent inhibition reaches 50%
row,SMILES,IC50 [nM]
1,CN(C)c1ccc(N=Nc2ccc(S(=O)(=O)N[C@H](Cc3ccccc3)C(=O)NO)cc2)cc1,5.3
2,CN(C)c1ccc(C#Cc2ccc(S(=O)(=O)N[C@H](Cc3c[nH]c4ccccc34)C(=O)O)cc2)cc1,98.1
3,CC(C)(C)c1ccc(-c2ccc(S(=O)(=O)N[C@H](Cc3ccccc3)C(=O)O)cc2)cc1,1910
4,Cc1ccc(-c2ccc(S(=O)(=O)N[C@H](Cc3ccccc3)C(=O)O)s2)cc1,244
5,COc1ccc(C#Cc2ccc(S(=O)(=O)N[C@@H](C(=O)O)C(C)C)cc2)cc1,2980
6,O=C(O)[C@@H](Cc1c[nH]c2ccccc12)NS(=O)(=O)c1ccc(C#Cc2ccc(O)cc2)cc1,75.9
7,CSc1ccc(-c2ccc(S(=O)(=O)N[C@H](Cc3c[nH]c4ccccc34)C(=O)O)s2)cc1,12.6
8,O=C(O)[C@@H](Cc1c[nH]c2ccccc12)NS(=O)(=O)c1ccc(C#Cc2ccccc2)s1,1110
9,O=C(Nc1ccccc1)Nc1ccc(S(=O)(=O)N[C@H](Cc2ccccc2)C(=O)NO)cc1,940
10,O=C(O)[C@@H](Cc1ccccc1)NS(=O)(=O)c1ccc(C#Cc2ccc(F)cc2)cc1,161
11,CC(=O)Oc1ccc(C#Cc2ccc(S(=O)(=O)N[C@H](Cc3c[nH]c4ccccc34)C(=O)O)cc2)cc1,123
12,COc1ccc(C#Cc2ccc(S(=O)(=O)N[C@H](Cc3c[nH]c4ccccc34)C(=O)O)cc2[N+](=O)[O-])cc1,3280
13,Cc1ccc(C#Cc2ccc(S(=O)(=O)N[C@@H](C(=O)O)C(C)C)s2)cc1,14.4
14,O=C(O)[C@@H](Cc1c[nH]c2ccccc12)NS(=O)(=O)c1ccc(C#Cc2ccccc2[N+](=O)[O-])s1,1530
15,COc1ccc(C#Cc2ccc(S(=O)(=O)N[C@H](Cc3c[nH]c4ccccc34)C(=O)O)s2)cc1,73.6
16,CC(C)[C@@H](NS(=O)(=O)c1ccc(C#Cc2ccc(F)cc2)s1)C(=O)O,156
17,O=C(O)[C@@H](Cc1c[nH]c2ccccc12)NS(=O)(=O)c1ccc(C#Cc2ccc(F)cc2)s1,224

# The next lines start with the values.
row,IC50 [nM],SMILES
1,24.3,COc1ccc(C#Cc2ccc(S(=O)(=O)N[C@H](Cc3ccccc3)C(=O)O)s2)cc1
2,929,Cc1ccc(C#Cc2ccc(S(=O)(=O)N[C@H](Cc3ccccc3)C(=O)O)cc2)cc1
3,23,Cc1ccc(C#Cc2ccc(S(=O)(=O)N[C@H](Cc3c[nH]c4ccccc34)C(=O)O)cc2)cc1 [1a-2-10]
4,10.9,COc1ccc(C#Cc2ccc(S(=O)(=O)N[C@H](Cc3c[nH]c4ccccc34)C(=O)O)cc2)cc1
5,96.5,COc1ccc(-c2ccc(S(=O)(=O)N[C@@H](C(=O)O)C(C)C)s2)cc1
6,21.8,COc1ccc(C#Cc2ccc(S(=O)(=O)N[C@@H](C(=O)O)C(C)C)s2)cc1
7,6.1,CC(=O)n1cc(CC(NS(=O)(=O)c2ccc(Oc3ccccc3)cc2)C(=O)NO)c2ccccc21 (racemic)
8,133,CC(C)[C@@H](NS(=O)(=O)c1ccc(C#Cc2ccc([N+](=O)[O-])cc2)cc1)C(=O)O
9,40,COc1ccc(-c2ccc(S(=O)(=O)N[C@H](Cc3c[nH]c4ccccc34)C(=O)O)s2)cc1
10,88,O=C(O)[C@@H](Cc1c[nH]c2ccccc12)NS(=O)(=O)c1ccc(C#Cc2ccc(F)cc2)cc1
11,1200,O=C(O)[C@@H](Cc1ccccc1)NS(=O)(=O)c1ccc(N=Nc2ccccc2)cc1
12,873,O=C(O)[C@@H](Cc1c[nH]c2ccccc12)NS(=O)(=O)c1ccc(-c2ccc(F)cc2)s1
13,231,O=C(O)[C@@H](Cc1c[nH]c2ccccc12)NS(=O)(=O)c1ccc(Oc2ccc(O)cc2)cc1
14,325,CC(C)[C@@H](NS(=O)(=O)c1ccc(C#Cc2ccc(N)cc2)cc1)C(=O)O
15,23.4,Cc1ccc(C#Cc2ccc(S(=O)(=O)N[C@H](Cc3c[nH]c4ccccc34)C(=O)O)s2)cc1
